# From PubChem BioAssay AID686954 (Sanford-Burnham Center for Chemical Genomics, 2013)
# The chains behind the UniProt entries cited, without tags or fusion partners.
# UniProt Q96SD1, whole entry: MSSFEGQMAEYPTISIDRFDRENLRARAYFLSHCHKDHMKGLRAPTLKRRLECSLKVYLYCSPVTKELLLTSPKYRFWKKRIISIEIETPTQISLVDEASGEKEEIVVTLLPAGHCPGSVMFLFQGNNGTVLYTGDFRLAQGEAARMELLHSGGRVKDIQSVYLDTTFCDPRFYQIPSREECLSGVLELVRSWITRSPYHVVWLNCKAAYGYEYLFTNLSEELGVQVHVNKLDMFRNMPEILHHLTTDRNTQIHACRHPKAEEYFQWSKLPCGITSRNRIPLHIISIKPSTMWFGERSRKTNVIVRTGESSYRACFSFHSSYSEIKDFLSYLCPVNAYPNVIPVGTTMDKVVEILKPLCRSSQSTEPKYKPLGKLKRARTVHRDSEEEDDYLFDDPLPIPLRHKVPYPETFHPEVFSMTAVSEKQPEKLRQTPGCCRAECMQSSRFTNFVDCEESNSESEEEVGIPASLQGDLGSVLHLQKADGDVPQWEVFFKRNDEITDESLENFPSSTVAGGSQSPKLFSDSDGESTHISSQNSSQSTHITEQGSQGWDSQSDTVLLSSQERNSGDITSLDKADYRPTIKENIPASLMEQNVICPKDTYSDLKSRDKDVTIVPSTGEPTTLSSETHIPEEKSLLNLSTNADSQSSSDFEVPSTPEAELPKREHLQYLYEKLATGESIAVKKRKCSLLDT
# This is a selection; strong and weak results do not stand in their true shares. Some tests of the compounds listed are not included; inactive here does not mean inactive elsewhere. Activity calls are given as the source filed them.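 The calls were made as follows: active = at 10 µM dose, at least 30% inhibition, measured as corrected fluorescence normalized to stimulator and neutral control wells; inactive = the rest.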
# Target: Protein artemis (Homo sapiens) (UniProt Q96SD1)
# Assay: Artemis endonuclease inhibitors, primary screen, biochemical, fluorescence intensity, FAM/BHQ-1 hairpin substrate (AID 686954)
# Conditions: recombinant Artemis, quenched FAM hairpin cleavage fluorescence; at 10 µM; active compounds read high
row,Structure (SMILES),inhibition
1,O=C(OC1CN2CCC1CC2)C(CO)(c1ccccc1)c1ccccc1 (stereo not drawn),inactive: 0.71%
2,CN(C)c1cccc(C(=O)NCC2(N(C)C)CCCCC2)c1,inactive: -1.15%
3,CC(C)N1C(=O)CC2(CCN(CCOC(=O)C(O)(c3ccccc3)c3ccccc3)CC2)C1=O,inactive: 1.46%
